Among the data in US20150353608A1 are Kd values, retold here.

For the assay, the target named is Fc region prepared from human monoclonal IgG by papain digestion (human). Put plainly: SPR, Fc immobilized.

Molecule DAAWHLGELVWATYYDPETGTWEPDWQRMLGQ [polypeptide pep24] returned a Kd of 220 nM.

As usually defined, the Kd is the concentration at which binding is half-saturated.
